Chains of the proteins cited; added tags and fusions are not shown.
UniProt P35408, whole entry: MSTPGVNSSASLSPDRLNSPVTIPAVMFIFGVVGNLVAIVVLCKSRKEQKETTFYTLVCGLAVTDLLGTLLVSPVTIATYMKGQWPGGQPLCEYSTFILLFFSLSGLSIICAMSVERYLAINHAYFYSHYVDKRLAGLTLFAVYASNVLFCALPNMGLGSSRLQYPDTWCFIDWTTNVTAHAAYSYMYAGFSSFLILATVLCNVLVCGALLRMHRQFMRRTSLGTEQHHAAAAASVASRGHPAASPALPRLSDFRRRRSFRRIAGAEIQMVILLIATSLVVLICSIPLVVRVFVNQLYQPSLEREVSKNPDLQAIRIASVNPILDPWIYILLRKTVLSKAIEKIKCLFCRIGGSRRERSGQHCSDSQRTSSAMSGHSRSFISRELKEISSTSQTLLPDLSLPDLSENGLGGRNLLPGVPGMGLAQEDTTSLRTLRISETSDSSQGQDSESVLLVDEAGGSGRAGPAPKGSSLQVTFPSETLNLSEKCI

In patent US11434246B2, “EP4 antagonists” (Eisai R&D Management Co., Ltd., priority 2015, dated 2022):

Target: EP4 (Homo sapiens, UniProt P35408)
Experiment: EP4 Antagonism by CRE-PLAP Reporter Assay (SE302 cells, PGE2-stimulated)
Settings: read-out: CRE-PLAP; SE302 (HEK293) cells, 3 ng/mL PGE2, overnight; single or multiple assay average values
Text: PGE2 and [^3H]-labelled PGE2 were purchased from Cayman Chemical (Ann Arbor, Mich.) and Perkin Elmer (Waltham, Mass.), respectively. Mouse breast 4T1 cells (CRL-2539) were obtained from American Tissue Culture Collection. SE302 cell line is a clone of the HEK293 cells containing cAMP response element (CRE) promoter that when activated drives secretion of placental-like alkaline phosphatase (PLAP). […]
EP4 Antagonism by CRE-PLAP Reporter Assay: SE302 cells were maintained in DMEM/F12 (50:50) (MediaTech) supplemented with 10% FBS (Tissue Culture Biologicals) plus penicillin/streptomycin. […] Cells were then stimulated with 3 ng/mL of PGE2 in the presence or absence of various concentrations of test compound overnight, and PLAP activity was measured by mixing 15 μL of culture supernatants with 75 μL of Lumi-phos (Lumigen, Inc.) and 60 μL of assay buffer containing 8 mmol/L MgSO4 in 0.1 mol/L carbonate-bicarbonate buffer pH11 in a new 96-well black plate and incubated for 2 h at room temperature. The intensity of luminescence, which reflected the PLAP activity in the supernatant, was quantified with an Envision 2101 Multilabel Reader. […] IC50 value for each individual experiment was calculated using GraphPad Prism 6.02 (Lake Forest, Calif.) with % of control values. […]

Q: With `C[C@H](NC(=O)c1c(C(F)(F)F)nn2c1N(c1cccc(C(F)(F)F)c1)CC2)c1ccc(C(=O)O)cc1` as the compound, how does the IC50 read?
A: 100 nM
